Data as given in PMC9929232, “On-demand male contraception via acute inhibition of soluble adenylyl cyclase” (Nature Communications, 2023).

Test system: epididymal mouse sperm
Assay: Tyrosine phosphorylation (pY) Western blot of sperm from injected mice
Details: Fig. S1d; 1:25 capacitating media

Cc1c(Cc2ccccc2)c(-c2cc(Cl)nc(N)n2)nn1C [TDI-10229, reference compound]
normalized pY: 1.59
